Data from patent publication US5763271A, “Vasodilatory and immune suppressant peptides” (The President and Fellows of Harvard College, priority 1994, dated 1998).

What was measured:
rabbit skin = assay: Vasodilator assay: erythema after intradermal injection into rabbit skin; format: in vivo
Experimental: Reversed-phase high-performance liquid chromatography (HPLC) on the extract of 100 pairs of salivary glands is depicted in FIG. 1. 100 pairs of salivary glands were dissected in PBS. Lysates were made by freeze-thawing. The extract was spun in a microcentrifuge for 30 seconds before being applied to the column. A C-18 micropellicular HPLC column (Glycotech) was equilibrated with 20% acetonitrile/0.1% trifluoroacetic acid at 50° C. at a flow rate of 0.6 ml/minute. Three minutes after injection, a linear gradient was run for 20 minutes reaching 44% acetonitrile. Fractions were collected every 30 seconds and assayed for vasodilatory activity. The vasodilator assay was performed by diluting material from the gradient 10 fold and injecting 50 μl intradermally into the shaved back of a rabbit. The development of erythema at the injection site corresponded with the peak indicated. One μg of human CGRP, used as a control peptide, eluted as a peak of equal area, five minutes later. This observation implies that approximately 10 nanograms of LP are present per pair of salivary glands.
The amount of LP injected into the skin was based on the area of the absorbing peak collected from RP-HPLC. […] The area of resultant erythema was measured at 2 hours (triangles) and again at 4 hours (circles). […]

human macrophages = assay: H2O2 production by IFN-γ activated macrophages (scopoletin fluorometric assay); format: cell-based; details: 3 h pretreatment
Source text: Monocytes obtained by leukophoresis of healthy volunteers were purified on Ficoll-hypaque and Percoll (Pharmacia, Piscataway, N.J.) gradients and placed into microtiter well (5×10^5 /well) in RPMI-1640 (GIBCO, Grand Island, N.Y.) with 5% pooled normal human serum and 1% gentamycin (M. A. Bioproducts, Walkinville, Md.). The cells were greater than 95% macrophages as judged by esterase staining. (The Manual of Macrophage Methodology, Herrscowitz et al., eds. Marcel Dekker, N.Y., p. 199 (1981)). After one day in culture, non-adherent cells were rinsed away and the macrophages were treated, e.g., with human CGRP, Calcitonin, or LP as described below. Following treatment, the macrophages were incubated for three days with a concentration of from 100 to 400 units interferon gamma (Amgen Biologicals, Thousand Oaks, Calif.), in medium with 15% pooled normal human serum, at which time the H2 O2 concentration in the cells was determined.
H2 O2 production by macrophages was determined by fluorometric assay using the fluorophore scopoletin (de la Harpe et al., J. Immunol. Methods 78: 323 (1985)). […] The amount of H2 O2 released per culture is determined as nanomoles H2 O2. […] DNA was determined by a fluorescence assay (Kissane et al., J. Biol. Chem. 233: 189 (1958). […]

[1] = test system: BALB/c peritoneal macrophages; assay: Macrophage presentation of OVA to OVA-specific T-cell line (3H TdR incorporation); format: cell-based, mice; details: rat CGRP 1.25×10^-7 M 3 hrs
Source text: An OVA-specific T-cell line was produced in BALB/c mice (Titus et al., J. Immunol. 133:1594 (1984)). The line was L3T4^+ and was maintained by successive cycles of restimulation and rest in vitro (Kimono et al., J. Exp. Med. 152:759 (1980)). As a source antigen-presenting cells, BALB/c peritoneal cells (Titus et al., Clin. Exp. Immunol. 55:157, 1984) were placed into microtiter wells (10^4 /well) in Dulbecco's modified Eagle's medium (DMEM) (Maryanski et al., Eur. J Immunol. 12:401 (1982) supplemented with 5% fetal calf serum (Hyclone, Logan, Utah) and cultured overnight. Non-adherent cells were rinsed out of the wells, and medium with or without rat CGRP (1.25×10^-7 M) was added as a pre-incubation step. Three hours later the wells were rinsed to remove the CGRP and the indicated number of OVA-specific T-cells (Sigma, St. Louis, Mo.) were added. At varying times thereafter, the wells were pulsed with 1 μCi^3 H methylthymidine (^3 H TdR) (Amersham, Arlington Heights, Ill.) and thymidine incorporation was assessed (Titus et al., J. Immunol. 133:1594 (1984)).
BALB/c peritoneal macrophages (10^4 /well) were used as antigen-presenting cells. The macrophages were preincubated in 1.25×10^-7 M rat CGRP for three hrs., and the CGRP was then washed away. OVA-specific T-cells and OVA were then added to the cultures to assist the ability of the CGRP-treated macrophages to present antigen as measured by the degree of proliferation of the T-cells. Forty-eight hours later the cultures were pulsed with ^3 H TdR to assess the degree of proliferation of the T-cells. The numbers in Table 5 below represent the mean thymidine incorporation of quadruplicate cultures±SD. Background responses (macrophages+T-cells but no OVA, or T-cells+OVA but no macrophages) ranged between 300 to 500 CPM. Similar results were obtained with varying numbers (10^3 to 2×10^4 /well) of peritoneal cell macrophages. The results in the Table indicate that the ability of murine macrophages to present OVA to an OVA-specific T-cell line was inhibited by CGRP. Similar results were obtained with different numbers of T-cells and different doses of OVA to stimulate the cultures.

calcitonin gene-related peptide (ACDTATCVTHRLAGLLSRSGGVVKNNFVPTNVGSKAF; Calcitonin gene-related peptide 1; UniProt P06881 83-119, looked up) [CGRP, neuropeptide calcitonin gene-related peptide; human form in the skin and H2O2 tests]
erythema at injection site at 4 hours (rabbit skin; 4 hours after injection): only residual erythema | amount giving equivalent erythema (rabbit skin; two hours after injection, 50 μl PBS into shaved back of rabbit): 50 nanograms | lowest concentration significantly inhibiting H2O2 production (human macrophages; IFN-γ 200 units/ml, 72 hrs): 2.5 nM | effect of higher concentrations on H2O2 production (human macrophages; concentrations above 2.5×10^-9 M, IFN-γ): completely abrogated | Response (CPM ± SD) to stimulation with 200 mg/ml OVA ([1]; 15,000 T cells/well): 1,620 ± 910 CPM | Response (CPM ± SD) to stimulation with 400 mg/ml OVA ([1]; 15,000 T cells/well): 2,620 ± 700 CPM | Response (CPM ± SD) to stimulation with 200 mg/ml OVA ([1]; 30,000 T cells/well): 830 ± 500 CPM | Response (CPM ± SD) to stimulation with 400 mg/ml OVA ([1]; 30,000 T cells/well): 3,380 ± 1,870 CPM
